# Data as given in patent US20240082282A1 (priority 2020, published 2024).
# Tested on: B. burgdorferi N40
# Assay: Mouse infection model (IP injection, oral gavage)
# Conditions: 75 mg/kg twice per day intraperitoneally for 5 days; control 4/4
substance,measurement,value
Hygromycin A,Mice with positive cultures or PCRs for B. burgdorferi,0/4
